Rows were chosen to be rich in hits. Some 2.3% of all compounds tested hit in one or more screens of this group.
Yeast UUG start: alters start codon recognition fidelity in yeast; S. cerevisiae UUG-firefly luciferase reporter, luminescence/redox ratio; activity score, % at 18.7 µM; actives 0.13% (n = 350,000); AID 602363;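 active = replicate mean at a twofold rise or more, about +100% in these data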;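 also: firefly luciferase made from a UUG start codon reports start codon fidelity; reporter light over untreated wells divided by growth signal over untreated wells; some hits fall short of that in this replicate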
MC4R antag cAMP: MC4R antagonists of cAMP signaling, primary screen, cell-based, TR-FRET, antagonist arm of biased-ligand search. Melanocortin receptor 4 (Homo sapiens), P32245. MC4R-expressing cells, MTII-stimulated cAMP, LANCE TR-FRET. inhibition, % at 6.5 µM. actives 0.48% (n = 360,000). AID 540295, 2011;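 active means inhibition above its plate's cutoff, the mean of tested wells on that plate plus 3 SD, cut at about 29% in these data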;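 further: 0% = Melanotan II alone and 100% = Melanotan II plus saturating MCL0020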
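Assay system: human MC4R-expressing U2OS cells; reagent: Melanotan II stimulation of cells; dosing: 6.5 µM single dose; timing: compound 30 min, challenge 1 h, detection 1 h; signal: TR-FRET cAMP assay; replicates: one well per compound, no replicates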
MC4R barr agon: MC4R agonists recruiting beta-arrestin, primary screen, cell-based, luminescence, agonist arm of biased-ligand search; Melanocortin receptor 4 (Homo sapiens), P32245; U2OS MC4R beta-arrestin complementation; percent of melanotan II response, DMSO zero; activation, % at 8.9 µM; actives 0.98% (n = 360,000); AID 540308, 2011;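 active means activation above a per-plate cutoff, the mean activation of sample wells on that plate plus 3 SD, cut at about 8% in these data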
ASAP1 GAP inh: inhibitors of human ASAP1 ArfGAP activity, primary screen, biochemical, fluorescence polarization; actives 0.19% (n = 360,000); Arf-GAP with SH3 domain, ANK repeat and PH domain-containing protein 1 (Homo sapiens), …; inhibition, % at 16.5 µM; ASAP1-stimulated ARF1 GTP hydrolysis, GDP FP detection; in the data active means inhibition above about 25%;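 further: 0% = vehicle with enzyme and substrate and 100% = no enzyme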
ARFGAP1 inhibitor: inhibitors of rat ARFGAP1 GAP activity, primary screen, biochemical, fluorescence polarization, GDP tracer. ADP-ribosylation factor GTPase-activating protein 1 (Rattus norvegicus), Q62848. Arfgap1-stimulated ARF1 GTP hydrolysis, GDP FP detection. inhibition, % at 16.5 µM. actives 0.26% (n = 360,000);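 active means inhibition above a per-plate limit, mean inhibition of low control wells plus 3 SD, cut at about 25% in these data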;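 further: 0% = DMSO wells with enzyme and 100% = wells lacking Arfgap1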
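Repeats: one replicate per compound; assay system: rat Arfgap1 catalytic domain, aa 1-136; times: enzyme reaction 120 min at 25 °C after 20 min preincubation; detection: FP of antibody-bound GDP Alexa 633 tracer, ex 620/em 688 nm; benchmarks: high control wells lacking Arfgap1, low control full reaction with DMSO; reagent: human ARF1(Δ1-17)-GTP substrate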
NRP1-CendR mod: modulators of CendR peptide binding to NRP-1, primary screen, biochemical, fluorescence polarization, uHTS; inhibition, % at 25 µM; actives 0.85% (n = 360,000); FAM-RPARPAR peptide binding to NRP-1; Neuropilin-1 (Homo sapiens), O14786; AID 602438, 2012;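 active means inhibition or corrected inhibition above about 18%, plus a signal ratio from 0.5 to 1.5, limit read from the data, passing the limit was not always enough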
MC4R barr ag: MC4R beta-arrestin agonists, retest, confirmation, cell-based, luminescence, U2OS; shares compounds with MC4R barr agon; U2OS MC4R beta-arrestin recruitment; scaled DMSO 0%, Melanotan II 100%; activation, % at 8.9 µM; actives 31% (n = 2,400);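 active means mean activation across replicates above the hit cutoff set in the earlier primary screen, cut at about 8% in these data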
MOR DOR agonist: agonists of MOR-DOR heterodimerization, counter-screen for MC4R biased agonist project, cell-based, luminescence. shares compounds with MC4R barr agon. U2OS PathHunter beta-arrestin, beta-gal luminescence; percent of deltorphin B response, DMSO zero. activation, % at 9.2 µM. actives 5.8% (n = 2,400). AID 602194, 2012;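 active means mean activation across replicates exceeds the hit threshold derived in the earlier primary screen, cut at about 18% in these data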;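 further: 100% = deltorphin B at 0.9 µM final and 0% = DMSO alone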
The depositor's hits bear a star; · = no result given.

Sequences of proteins named here, by UniProt entry; tags and fusion partners are left off. Residues count along the entry.
Melanocortin receptor 4 (Homo sapiens), P32245, UniProt P32245, whole entry, looked up: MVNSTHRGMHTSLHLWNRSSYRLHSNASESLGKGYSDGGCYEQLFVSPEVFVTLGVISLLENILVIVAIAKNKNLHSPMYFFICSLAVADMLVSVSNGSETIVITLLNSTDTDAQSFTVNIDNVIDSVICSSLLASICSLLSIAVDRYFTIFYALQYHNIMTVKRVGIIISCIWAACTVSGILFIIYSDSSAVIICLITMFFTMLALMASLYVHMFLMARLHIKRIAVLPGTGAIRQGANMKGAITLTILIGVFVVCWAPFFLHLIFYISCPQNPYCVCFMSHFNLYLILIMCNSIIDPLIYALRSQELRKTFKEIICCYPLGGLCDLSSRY
ADP-ribosylation factor GTPase-activating protein 1 (Rattus norvegicus), Q62848, UniProt Q62848, whole entry, looked up: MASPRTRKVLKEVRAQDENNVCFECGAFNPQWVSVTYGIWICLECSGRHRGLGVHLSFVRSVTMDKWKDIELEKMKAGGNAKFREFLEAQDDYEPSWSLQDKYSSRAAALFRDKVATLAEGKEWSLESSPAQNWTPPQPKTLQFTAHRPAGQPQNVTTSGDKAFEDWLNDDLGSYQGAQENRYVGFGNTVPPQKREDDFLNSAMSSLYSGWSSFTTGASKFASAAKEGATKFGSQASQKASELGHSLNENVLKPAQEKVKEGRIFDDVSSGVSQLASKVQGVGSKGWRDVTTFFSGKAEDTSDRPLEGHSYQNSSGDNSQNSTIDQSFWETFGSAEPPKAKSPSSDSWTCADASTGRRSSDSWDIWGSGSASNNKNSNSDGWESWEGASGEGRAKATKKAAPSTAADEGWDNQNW
ADP-ribosylation factor GTPase-activating protein 1 (Rattus norvegicus), Q62848, UniProt Q62848, 1-136 limits assumed: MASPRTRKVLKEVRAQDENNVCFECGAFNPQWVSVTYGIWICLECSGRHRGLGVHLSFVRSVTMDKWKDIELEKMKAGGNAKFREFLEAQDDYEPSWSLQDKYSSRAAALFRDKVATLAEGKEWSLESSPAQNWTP
Neuropilin-1 (Homo sapiens), O14786, UniProt O14786, whole entry, looked up: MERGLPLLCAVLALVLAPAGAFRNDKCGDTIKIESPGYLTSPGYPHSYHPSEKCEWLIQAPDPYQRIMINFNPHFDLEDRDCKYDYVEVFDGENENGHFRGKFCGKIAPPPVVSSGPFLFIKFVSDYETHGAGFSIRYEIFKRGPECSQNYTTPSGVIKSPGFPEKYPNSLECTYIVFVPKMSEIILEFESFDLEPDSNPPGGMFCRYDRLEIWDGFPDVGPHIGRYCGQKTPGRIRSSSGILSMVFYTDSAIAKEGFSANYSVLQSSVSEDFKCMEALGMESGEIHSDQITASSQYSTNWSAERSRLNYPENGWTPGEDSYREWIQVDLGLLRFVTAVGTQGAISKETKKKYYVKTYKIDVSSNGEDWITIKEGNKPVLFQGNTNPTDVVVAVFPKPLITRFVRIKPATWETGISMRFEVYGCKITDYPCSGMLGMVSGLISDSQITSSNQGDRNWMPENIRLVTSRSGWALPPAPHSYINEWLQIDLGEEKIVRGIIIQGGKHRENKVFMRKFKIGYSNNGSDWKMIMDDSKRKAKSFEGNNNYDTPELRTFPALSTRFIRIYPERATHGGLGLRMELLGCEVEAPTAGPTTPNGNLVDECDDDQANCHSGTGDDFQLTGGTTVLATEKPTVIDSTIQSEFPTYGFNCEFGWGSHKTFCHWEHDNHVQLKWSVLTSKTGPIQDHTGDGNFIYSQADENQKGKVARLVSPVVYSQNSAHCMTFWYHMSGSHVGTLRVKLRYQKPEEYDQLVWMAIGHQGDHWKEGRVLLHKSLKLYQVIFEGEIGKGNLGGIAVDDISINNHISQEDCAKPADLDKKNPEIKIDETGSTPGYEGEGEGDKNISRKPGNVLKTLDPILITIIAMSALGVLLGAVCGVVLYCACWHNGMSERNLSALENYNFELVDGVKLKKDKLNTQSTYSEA

SMILES	Yeast UUG start	MC4R antag cAMP	MC4R barr agon	ASAP1 GAP inh	ARFGAP1 inhibitor	NRP1-CendR mod	MC4R barr ag	MOR DOR agonist
COc1ccc(C[C@H]2CN3C(=NC[C@H]3Cc3ccccc3)N2CCNC(=O)c2ccc(C)c(Br)c2)cc1	-16	9	16*	·	·	6	22*	27*
COc1ccc(C[C@H]2CN3C(=NC[C@@H]3Cc3ccc(O)cc3)N2CCNC(=O)c2ccc(C)c(Br)c2)cc1	-13	4	-1	-4	-14	1	·	·
Cc1noc(C)c1NC(=O)N(C)C[C@H]1Oc2ncc(C#CC3CCCCC3)cc2C(=O)N([C@@H](C)CO)C[C@H]1C	27	·	·	·	·	·	·	·
Cc1ccc2c(c1)c(N=NC(N)=S)c(O)n2Cc1ccccc1	-4	-27	8	12	6	-3	·	·
CC1=CC(C)(C)n2c(O)c(N=NC(N)=S)c3cc(C)cc1c32	7	-2	16*	-1	13	-5	14*	5
CC1(C)Oc2ccc3ccc(=O)oc3c2/C(=C/Nc2ccccc2)C1=O	-12	21	9.8*	-1	10	-40	3	3
O=C(COc1ccc([N+](=O)[O-])cc1)Nc1ccc(NC(=O)c2ccccc2)cc1	-8	11	-3	0	8	1	·	·
O=C(Nc1ccc([N+](=O)[O-])cc1Cl)c1cccc([N+](=O)[O-])c1	-2	5	12*	-2	16	0	7	11
Cc1ccc(-c2csc(NC(=O)c3cccc([N+](=O)[O-])c3)n2)cc1	-9	2	18*	14	4	3	13*	5
O=C(Nc1ccc(OCc2ccccc2)cc1)c1cccc([N+](=O)[O-])c1	-3	6	10*	2	-3	1	1	12
O=C(CNC(=S)NC(=O)c1cccc([N+](=O)[O-])c1)c1ccccc1	·	5	11*	-2	9	-15	-1	2
Cc1ccc(-c2csc(NC(=O)c3ccc([N+](=O)[O-])o3)n2)cc1	-12	-7	-2	-4	-7	2	·	·
O=C(NC(=S)NCc1ccccc1)c1cccc([N+](=O)[O-])c1	-24	8	-1	-9	-1	12	·	·
C[C@@H]1CN([C@@H](C)CO)C(=O)c2cc(C#CC(C)(C)O)cnc2O[C@@H]1CN(C)C(=O)CN(C)C	-7	·	·	·	·	·	·	·
CN(C)C(=O)C[C@@H]1C[C@H]2c3cc(NC(=O)Nc4ccccc4)ccc3O[C@H]2[C@@H](CO)O1	-4	·	·	·	·	·	·	·
CO[C@@H]1CN(C)C(=O)c2cc(NC(=O)Nc3ccccc3F)ccc2OC[C@@H](C)N(Cc2ccccc2C(=O)O)C[C@H]1C	5	·	·	·	·	·	·	·
O=C(Nc1nc(-c2ccc([N+](=O)[O-])cc2)cs1)c1c(F)cccc1F	-18	15	24*	-14	13	-17	1	4
CCc1ccc(NC(=S)NC(=O)c2c(-c3ccccc3Cl)noc2C)cc1	·	24	-1	14	3	-10	·	·
CC(=O)Nc1nc(-c2ccc([N+](=O)[O-])cc2)cs1	·	17	0	10	-2	8	·	·
Cc1onc(-c2ccccc2Cl)c1C(=O)NC(=S)NCC(=O)c1ccccc1	·	3	19*	13	5	9	4	5

5 of the compounds above, as a markdown table.
| SMILES | Yeast UUG start | MC4R antag cAMP | MC4R barr agon | ASAP1 GAP inh | ARFGAP1 inhibitor | NRP1-CendR mod | MC4R barr ag | MOR DOR agonist |
| --- | --- | --- | --- | --- | --- | --- | --- | --- |
| O=C(NC(=S)NCc1ccccc1)c1cccc([N+](=O)[O-])c1 | -24 | 8 | -1 | -9 | -1 | 12 | · | · |
| C[C@@H]1CN([C@@H](C)CO)C(=O)c2cc(C#CC(C)(C)O)cnc2O[C@@H]1CN(C)C(=O)CN(C)C | -7 | · | · | · | · | · | · | · |
| CN(C)C(=O)C[C@@H]1C[C@H]2c3cc(NC(=O)Nc4ccccc4)ccc3O[C@H]2[C@@H](CO)O1 | -4 | · | · | · | · | · | · | · |
| CO[C@@H]1CN(C)C(=O)c2cc(NC(=O)Nc3ccccc3F)ccc2OC[C@@H](C)N(Cc2ccccc2C(=O)O)C[C@H]1C | 5 | · | · | · | · | · | · | · |
| O=C(Nc1nc(-c2ccc([N+](=O)[O-])cc2)cs1)c1c(F)cccc1F | -18 | 15 | 24* | -14 | 13 | -17 | 1 | 4 |

Following part:
SMILES	Yeast UUG start	MC4R antag cAMP	MC4R barr agon	ASAP1 GAP inh	ARFGAP1 inhibitor	NRP1-CendR mod	MC4R barr ag	MOR DOR agonist
O=C(CCc1ccccc1)N/N=C/c1cc(Br)ccc1O	·	1	15*	2	-7	12	-1	7
Oc1ccc(Br)cc1/C=N/NC(=S)NCCc1ccccc1	-37	-2	2	3	1	6	·	·
CC(=O)N(C)C[C@@H]1Oc2ncc(-c3cccc(C#N)c3)cc2C(=O)N([C@H](C)CO)C[C@H]1C	-3	·	·	·	·	·	·	·
Cc1noc(C)c1NC(=O)Nc1ccc2c(c1)C(=O)N([C@@H](C)CO)C[C@H](C)[C@@H](CN(C)Cc1ccccc1)O2	11	·	·	·	·	·	·	·
N/C(Cc1ccc(Cl)cc1)=N\OC(=O)c1cccc2ccccc12	·	3	11*	8	-1	-4	11*	13
C[C@@H]1CN([C@H](C)CO)C(=O)Cc2cc(NC(=O)CCC(F)(F)F)ccc2O[C@H]1CN(C)Cc1ccc(Oc2ccccc2)cc1	-2	·	·	·	·	·	·	·
COc1ccc(C)cc1NCc1cc(=O)oc2cc(-c3ccccc3)c(O)cc12	·	7	13*	0	11	2	2	4
Cc1cc(C)cc(NCc2cc(=O)oc3cc(-c4ccccc4)c(O)cc23)c1	6	5	4	-7	-9	-3	·	·
COC(=O)c1c2oc(c1C(=O)OC)C(=O)N[C@H](Cc1ccccc1)Cn1cc(nn1)[C@@H](Cc1ccccc1)NC(=O)N[C@@H](CO)CC2	5	·	·	·	·	·	·	·
Cc1cc(C)c(Cn2c(=O)n(CCCC(=O)NCc3ccco3)c(=O)c3sccc32)c(C)c1	-18	0	33*	7	5	6	-1	7
CCCN(C)C[C@H]1OCCCC[C@H](C)Oc2ccc(N(C)C)cc2C(=O)N([C@@H](C)CO)C[C@H]1C	-5	·	·	·	·	·	·	·
CCC(C)c1ccc2oc(-c3ccc(NC(=O)Cn4cnc5c(=O)n(C)c(=O)n(C)c54)cc3)nc2c1 (stereo unspecified)	-19	24	14*	-3	-8	-12	8.6*	·
Cn1c(=O)c2ncn(CC(=O)Nc3ccc(N4CCOCC4)cc3)c2n(C)c1=O	-4	7	-3	5	-15	-1	·	·
O=C(C[C@@H]1CC[C@H](NS(=O)(=O)c2ccc(F)cc2)[C@H](CO)O1)NCCN1CCCCC1	10	·	·	·	·	·	·	·
Cc1cc(C(=O)Nc2sc3c(c2C#N)CCC(C(C)(C)C)C3)no1 (stereo unspecified)	-22	-5	9.9*	-13	-10	3	-2	3
